Data on one molecule can be found in PMC4736438, “Cation–π Interactions Contribute to Substrate Recognition in γ‐Butyrobetaine Hydroxylase Catalysis” (Chemistry (Weinheim an Der Bergstrasse, Germany), 2015).

Sequences of proteins named here, by UniProt entry; tags and fusion partners are left off.
UniProt P80193, whole entry: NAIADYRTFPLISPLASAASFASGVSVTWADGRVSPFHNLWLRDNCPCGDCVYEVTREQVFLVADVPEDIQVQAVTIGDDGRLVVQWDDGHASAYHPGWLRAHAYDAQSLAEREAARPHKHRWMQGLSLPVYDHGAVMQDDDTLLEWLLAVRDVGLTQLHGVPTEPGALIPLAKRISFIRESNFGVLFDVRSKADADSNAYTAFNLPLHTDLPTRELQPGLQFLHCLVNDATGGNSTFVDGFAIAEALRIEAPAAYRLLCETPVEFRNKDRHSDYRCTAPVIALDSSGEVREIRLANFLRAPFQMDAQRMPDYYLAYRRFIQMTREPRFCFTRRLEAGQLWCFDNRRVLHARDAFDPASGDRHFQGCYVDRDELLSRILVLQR

The target of assay [1] is T1, psBBOX (Pseudomonas sp. AK-1, UniProt P80193). The assay is described as follows: 1H NMR (CPMG) protein titration. To be noted: psBBOX-Zn(II)-2OG complex (Zn for Fe); […] Tris-D11 pH […] K; tested form: bromide.
Assay [2] addresses T1, psBBOX. As to the kind of experiment: LC-MS hydroxylation kinetics. To be noted: read-out: 2; […] psBBOX, […] FeSO4, […] 2OG, […] ascorbate, Tris pH […] K; tested form: bromide. The assay is classed as biochemical. An excerpt:
LC-MS hydroxylation kinetics on psBBOX

For orientation: Kd means the concentration at which binding is half-saturated. Molecule `C[P+](C)(C)CCCC(=O)O` gave a Kd on psBBOX [1] of 7 µM. The Km on psBBOX [2] turned out to be 1200 µM.
